Measured values reported in ChEMBL document CHEMBL1146771, “Identification of purine inhibitors of phosphodiesterase 7 (PDE7)” (Bioorg Med Chem Lett, 2004).

Assays:
[1] = Inhibitory concentration ratio of PDE5 to that of PDE7
[2] = Inhibitory concentration ratio of PDE1 to that of PDE7
[3] = Inhibitory concentration ratio of PDE2 to that of PDE7
[4] = Inhibitory concentration ratio of PDE4 to that of PDE7
[5] = Inhibitory concentration ratio of PDE3 to that of PDE7

Ratio [1]: 1 | Ratio [2]: 86 | Ratio [3]: 86 | Ratio [4]: 50 | Ratio [5]: 270
Compound: CCOC(=O)c1sc(Nc2nc(NCc3ccc(S(N)(=O)=O)cc3)c3c(ncn3CC)n2)nc1C
